Target: T1, WT Fyn (Homo sapiens, UniProt P06241)
T1 construct: GST (N); made in house; host or cells: E. coli DH5a, pGEX-KT
Test: In vitro kinase inhibition assay
Type: biochemical

Protein sequences, listed by entry. Tags and fused reporters are not part of them. Residues count along the entry.
UniProt P06241, 1-534 isoform P06241-2: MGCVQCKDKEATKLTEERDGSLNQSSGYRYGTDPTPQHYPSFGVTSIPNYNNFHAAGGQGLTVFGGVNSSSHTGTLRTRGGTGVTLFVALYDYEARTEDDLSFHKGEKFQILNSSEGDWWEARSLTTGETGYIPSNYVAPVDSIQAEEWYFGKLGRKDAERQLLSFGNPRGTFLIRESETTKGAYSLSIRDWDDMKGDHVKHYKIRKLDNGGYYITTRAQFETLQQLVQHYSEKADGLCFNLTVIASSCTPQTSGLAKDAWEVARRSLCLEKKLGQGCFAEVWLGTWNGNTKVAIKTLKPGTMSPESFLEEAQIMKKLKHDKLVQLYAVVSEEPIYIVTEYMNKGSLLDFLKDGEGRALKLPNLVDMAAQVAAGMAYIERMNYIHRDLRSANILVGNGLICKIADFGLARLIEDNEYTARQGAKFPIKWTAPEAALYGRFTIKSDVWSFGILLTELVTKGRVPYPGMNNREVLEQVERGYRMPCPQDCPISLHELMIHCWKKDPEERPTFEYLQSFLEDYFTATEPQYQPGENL

CC(C)(C)n1nc(-c2cccc3ccccc23)c2c(N)ncnc21 [4-amino-1-(tert-butyl)-3-(1'-naphthyl)pyrazolo[3,4-d]pyrimidine]
IC50: 600 nM

From EP1321467A2, “High affinity inhibitors for target validation and uses thereof” (Princeton University, priority 1999, dated 2000)
